Assay results from ChEMBL document CHEMBL3120046, “Bis(ammonio)alkane-type agonists of muscarinic acetylcholine receptors: synthesis, in vitro functional characterization, and in vivo evaluation of their analgesic activity” (Eur J Med Chem, 2014).

Tests used:
[1] = biological target: Muscarinic receptor 2 (Cavia porcellus) (UniProt Q8VH27); test: Intrinsic activity at muscarinic M2 receptor in albino guinea pig left atrium assessed as […] of electrically-induced response relative to bethanechol; conditions: Cardiac atrium
Method in brief: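 Cumulative agonist concentration-response curves (1 nM–30 µM) in isolated tissue, Krebs-Henseleit, carbogen, 37 °C, 1 g tension, isometric contraction. Curves repeated with atropine 0.1 µM and hexamethonium 100 µM. Mean ± SEM of 6–8 experiments.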

[2] = tested on: Muscarinic acetylcholine receptor M3 (Cavia porcellus); test: Intrinsic activity at muscarinic M3 receptor in albino guinea pig ileum assessed as stimulation of electrically-induced response relative to bethanechol
[3] = tested on: Muscarinic acetylcholine receptor M3 (Cavia porcellus); test: Antagonist activity at muscarinic M3 receptor in albino guinea pig ileum assessed as inhibition of electrically-induced response

Row | SMILES | Intrinsic activity [1] | Intrinsic activity [2] | pKb [3]
1 | C[N+](C)(C)CC#CCOC1=NOCC1 | 1 | – | –
2 | CC(C)(CN1C(=O)c2cccc3cccc(c23)C1=O)C[N+](C)(C)CCCCCC[N+](C)(C)CCCN1C(=O)c2ccccc2C1=O | 0 | 0 | 5.49
